# B1: GST: glutathione S-transferase tag (SEQ ID NO: 6) on CD8 stalk (protein)
# chain: MGTSLLCWMALCLLGADHADAMSPILGYWKIKGLVQPTRLLLEYLEEKYEEHLYERDEGDKWRNKKFELGLEFPNLPYYIDGDVKLTQSMAIIRYIADKHNMLGGCPKERAEISMLEGAVLDIRYGVSRIAYSKDFETLKVDFLSKLPEMLKMFEDRLCHKTYLNGDHVTHPDFMLYDALDVVLYMDPMCLDAFPKLVCFKKRIEAIPQIDKYLKSSKYIAWPLQGWQATFGGGDHPPKSDLEVLFQGPLG
# modifications: glutathione S-transferase (GST) domain
# Columns and labels:
# K562 cells = experiment: Sorting of K562 cells expressing flankedccstreptag, RQR8, GST or H6 tags with their respective beads; type: cell-based
# Procedure: K562 cells were retrovirally transduced with the four constructs individually. Subsequently cell populations were sorted with their respective beads as per manufacturer protocol. Protein-A Dynabeads were previously incubated with clinical grade human-rituximab over-night at 4 C and washed 5× with PBS to remove any unbound rituximab before adding it to the cells. Sorted fractions were collected as well as the flow through for all sorting. Fractions were assessed for positive cells based on eGFP expression by flow cytometery with a blank channel to account for auto fluorescence from dead cells.
# The efficiencies of the different tags (GST, RQR8 and His-tag) at purifying lentiviral particles from cellular media, was tested using the approach previously described for flankcedccstreptag (see Example 2), i.e. by sorting K562 cells expressing these tags on their surface. K562 cells were retrovirally transduced with flankedccstreptag, GST, RQR8 and H6 epitopes separately (FIG. 8, Pre-sorted column). Transduced cells represented a minority of the total population based on eGFP expression; therefore cells were not mixed with NT-K562 cells. Populations expressing flankedccstreptag at 10.5%, RQR8 at 9.75%, GST at 22.7% and H6 […] were thereafter sorted with Streptavidin Dynabeads, human rituximab previously incubated with protein-A bead, Glutathione magnetic beads and His-tag Dynabeads respectively.
# Collected fractions were assessed for positive cells 12 days-post sorting. […] Moreover, K562 cells expressing GST epitope were successfully purified from pre-sorting population with 91% eGFP positive cells present in the sorted fraction. […] Conversely, K562 expressing H6 sorting was less successful as only 26.1% of cells in the sorted fraction were eGFP positive while 71.1% of cells were eGFP negative. Additionally, 59.2% eGFP positive cells were in the flow-through. The GST and RQR8 tags therefore show the best activity with regard to purifying viral particles from cellular supernatant in the same manner as flankcedccstreptag epitope.
# NT-293T cells = type: cell-based, human
# [1] = K562, respective beads, 12 days post sorting
molecule,measurement,setting,value
B1,eGFP positive cells in the flow-through fraction,K562 cells; [1],10.6%
same,eGFP positive cells in the sorted fraction,K562 cells; [1],91%
same,"eGFP positive cells, pre-sorted population",K562 cells; retrovirally transduced K562 before sorting,22.7%
same,"transduction efficiency, neat supernatant",NT-293T cells,high transduction efficiencies

# Reference: patent US10745715B2, “Method and means for purifying retroviral vectors” (UCL BUSINESS PLC, priority 2014, dated 2020)
